Yeast mating assay B: variants of the scFv Ab-14

Reference: Li et al. 2023, doi:10.1038/s41467-023-39022-2. File: FLAb, binding data.

Target peptide (SARS-CoV-2 spike, HR2 region): PDVDLGDISGINAS

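Phage display of a naive human antibody library on the peptide gave the parent. The variants were designed computationally from a first round of random CDR variants and then made and measured. Group labels follow the data file (En: ensemble of fine-tuned language models; GP: Gaussian process model; HC: hill climbing; Gen: genetic algorithm; Gibbs: Gibbs sampling; a sequence that several methods proposed may carry one label only). Affinity was read by AlphaSeq, a pooled yeast mating assay with surface-displayed partners. Pairs that bind mate more often; barcode pairs of the diploids are counted by sequencing. Read counts were normalised to the haploid input and turned into Kd by a linear fit to BCL2-family pairs of known affinity, for each replicate. The assay was run in six technical replicates.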

Parent: Ab-14, a human scFv built as VH, the linker GGGGSGGGGSGGGGS, VL. Only the CDRs of the light chain vary.
VH: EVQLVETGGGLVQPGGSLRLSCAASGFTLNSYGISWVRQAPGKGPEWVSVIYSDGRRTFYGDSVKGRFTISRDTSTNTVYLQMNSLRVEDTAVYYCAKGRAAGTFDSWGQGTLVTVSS
VL: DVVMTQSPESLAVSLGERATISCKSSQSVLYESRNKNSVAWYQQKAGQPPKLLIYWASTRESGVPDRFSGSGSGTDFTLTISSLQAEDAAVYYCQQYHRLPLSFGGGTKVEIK

Each variant is given by its three light chain CDRs, as the data file delimits them; those of the parent are KSSQSVLYESRNKNSVA, WASTRES, QQYHRLPLS. This list holds designs with more than six substitutions. The Kd shown is the geometric mean over detected replicates; a lower Kd is a better binder. "no signal" means that the variant was in the library but no mating with the target was seen in any replicate; the authors take this as a sign of poor binding, and no number exists. Of ten entries with the parent sequence, four were seen in most replicates (averages 2.2 nM to 240 nM), three in one and three in none, so single entries are noisy.

The variant KLENSMRWNLRDTNAVA | QASNRAM | QQYQRLPFL [En_Gibbs] gave 550 pM (6 of 6 replicates; controls 0 of 18).
The variant KIEQVWEAFNGHYANVA | NAAEVPE | QQYERLPLA [En_Gibbs] gave 24 nM (6 of 6 replicates; controls 0 of 18).
The variant HMSMLTLQGMRHTNSVA | QMTTRVN | QQYDRLPLM [En_Gen] gave 5.1 nM (6 of 6 replicates; controls 1 of 18).
The variant MISQLYNMGQFAINSVA | QASTRME | QQYHRLPLI [En_Gen] gave 25 nM (6 of 6 replicates; controls 0 of 18).
The variant KLQWSWLYESRNWNSVA | DASQRES | QQYHRLPLS [GP_Gibbs] gave 1.1 nM (6 of 6 replicates; controls 0 of 18).
The variant KCQQSSDYESRNFNSVA | NASTRCS | QQYHRLPLS [GP_Gibbs] gave 2.8 nM (6 of 6 replicates; controls 1 of 18).
The variant HVHMLMAIWKEISNNIA | DAQNRNA | QQYFRLPLA [En_Gibbs] gave 30 nM (2 of 6 replicates; controls 1 of 18).
The variant SISMLLNFESKVGNNVA | QMETRVN | QQYDRLPLT [En_Gen] gave 4.9 nM (6 of 6 replicates; controls 1 of 18).
The variant KLQMSNWYESRNKNSVA | DASVRES | QQYHRLPLS [GP_Gibbs] gave 3.5 nM (6 of 6 replicates; controls 1 of 18).
The variant SIYDTTGMESRNKNPIA | DVSTRPS | QQYDRLPLS [En_HC] gave 6.2 nM (6 of 6 replicates; controls 0 of 18).
The variant MISDLMLYGSRQKNPIA | NASTREY | QQYHRLPLE [En_HC] gave 11 nM (6 of 6 replicates; controls 1 of 18).
The variant MFSQSVMTGSFMRNSVA | QTSTRES | QQYDRLPLS [En_HC] gave 5.4 nM (6 of 6 replicates; controls 0 of 18).
The variant NISIEDVSEHNFANNVA | STDCRCS | QQYFHLPLM [En_Gibbs] gave 58 nM (6 of 6 replicates; controls 0 of 18).
The variant KVPQSMLYESRNANNVA | NASQRES | QQYHRLPLS [GP_Gibbs] gave 550 pM (6 of 6 replicates; controls 0 of 18).
The variant HMSMLTLGGMRHMNSVA | QMTTREN | QQYDRLPLI [En_Gen] gave 20 nM (6 of 6 replicates; controls 0 of 18).
The variant IVSQLMLWGYHAKNSIA | EAETRPN | QQYDRLPLF [En_Gen] gave 370 nM (1 of 6 replicates; controls 0 of 18).
The variant KVDQEVDGQSRNKNSVA | DASCREW | QQYHRLPLS [GP_Gibbs] gave 1.9 nM (6 of 6 replicates; controls 3 of 18).
The variant MISDMGLHDSRIHNSVA | NNSTREA | QQYDRLPLS [En_HC] gave 49 nM (6 of 6 replicates; controls 2 of 18).
The variant KLDMSDLMESRNWNAVA | HASTREE | QQYHRLPLS [GP_Gibbs] gave 930 pM (6 of 6 replicates; controls 0 of 18).
The variant KLQNFSQEWNKMWNNIA | DMTMKHT | QQYNRLPLE [En_Gibbs] gave 15 nM (6 of 6 replicates; controls 2 of 18).
The variant NVGQLMDGEMRNKNSVA | HQSTRED | QHYHRLPLS [En_HC] gave 1.6 nM (6 of 6 replicates; controls 0 of 18).
The variant KFHMGHEAGQRKHDNVA | EANLRFS | QQYNRLPII [En_Gibbs] gave no signal (0 of 6 replicates; controls 0 of 18).
The variant KISMLSENQLKNRNSVA | ELVTRVN | QQYNRLPLS [En_Gen] gave 1.4 nM (6 of 6 replicates; controls 2 of 18).
The variant KIGFVTNGISRNKNSVA | EQSTRES | QQYNRLPLS [En_HC] gave 1.6 nM (6 of 6 replicates; controls 0 of 18).
The variant KLSIMGLHQSIDKKSIA | ERSTREN | QQYHRLPLS [En_HC] gave 4.8 nM (6 of 6 replicates; controls 0 of 18).
The variant LISGVWDYGSRNYNSVA | QTSTREK | QQYDRLPLE [En_HC] gave 7.4 nM (6 of 6 replicates; controls 0 of 18).
The variant KLMPFWEYESRNKNSVA | EASTRES | QQYHRLPLS [GP_Gibbs] gave 2.2 nM (6 of 6 replicates; controls 0 of 18).
The variant TIGHTLMQGTRNRSNVA | EVSERLN | QQYDRLPLI [En_Gen] gave 16 nM (6 of 6 replicates; controls 2 of 18).
The variant MISQLMQMGQFAINSVA | QASIRNE | QQYDRLPLD [En_Gen] gave 19 nM (6 of 6 replicates; controls 1 of 18).
The variant TLMQVGGYEMNDHNSIA | DLRTREN | QQYHRLPLS [En_HC] gave 18 nM (6 of 6 replicates; controls 0 of 18).
The variant TISQSAHQESHNKNSVA | DLNVRGS | QQYDRLPLS [En_HC] gave 2.8 nM (6 of 6 replicates; controls 0 of 18).
The variant KLDYQADQYGVQCNNVA | HADIREP | QQYFKLPLN [En_Gibbs] gave 3.4 nM (6 of 6 replicates; controls 3 of 18).
The variant ALRQKGFELHGDRQSIA | HSDTRAA | QQYSRLPLA [En_Gibbs] gave 2.1 nM (6 of 6 replicates; controls 2 of 18).
The variant NLSWKSLGFENEWMAIA | NTSERNA | QQYARLPLS [En_Gibbs] gave 4.7 nM (6 of 6 replicates; controls 1 of 18).
The variant KISMLTRVGSTHGNSIA | EEATRAK | QQYHRLPLF [En_Gen] gave 18 nM (6 of 6 replicates; controls 1 of 18).
The variant KLSFLGLYEQRNCNSVA | SASTRCS | QQYHRLPLS [GP_Gibbs] gave 2.4 nM (6 of 6 replicates; controls 4 of 18).
The variant TISQMTSLFSMSINNVA | EVSTREE | QQYDRLPLM [En_Gen] gave 5.2 nM (6 of 6 replicates; controls 1 of 18).
The variant KLSIAGLHQSIDKKSIA | ERSTREN | QQYHRLPLS [En_HC] gave 2.1 nM (6 of 6 replicates; controls 0 of 18).
The variant KCDPSHLGESRNKNAVA | QASTREE | QQYHRLPLS [GP_Gibbs] gave 480 pM (6 of 6 replicates; controls 2 of 18).
The variant IISQVDAYESRQKNSIA | DQSTRGS | QQYDRLPLS [En_HC] gave 4.8 nM (6 of 6 replicates; controls 1 of 18).
The variant QISLNGWDGTKKEEAVA | EGTKRDA | QQYSRLPLS [En_Gibbs] gave 1.5 nM (6 of 6 replicates; controls 0 of 18).
The variant KLHQSVGYESRNKNNVA | GGSQRES | QQYHRLPLS [GP_Gibbs] gave 630 pM (6 of 6 replicates; controls 0 of 18).
The variant NLGQKMSLETEQRNSIA | DSTVREY | QQYSRIPLI [En_Gibbs] gave 6.1 nM (6 of 6 replicates; controls 1 of 18).
The variant KIFYRQEEDLRHESSIA | NGMARVK | QQYYMLPLS [En_Gibbs] gave 5.5 nM (6 of 6 replicates; controls 1 of 18).
The variant KLRTMTLTEGYFKNSVA | QASTREN | QSYHRLPLS [En_HC] gave 5.6 nM (6 of 6 replicates; controls 0 of 18).
The variant KVQYQLAYSQAHTNNVA | DASVVCA | QQYQRLPIG [En_Gibbs] gave 6.4 nM (6 of 6 replicates; controls 0 of 18).
The variant KIMQSLNYESFMKNSVA | GQETRER | QSYHRLPLS [En_HC] gave 48 nM (1 of 6 replicates; controls 1 of 18).
The variant IIAENSDDITEKQNSIA | ETSQVTS | QQYHLLPLA [En_Gibbs] gave 15 nM (6 of 6 replicates; controls 0 of 18).
The variant TISQMTSLFSQTINNVA | EVSTREE | QQYDRLPLT [En_Gen] gave 80 nM (5 of 6 replicates; controls 0 of 18).

The closing 6 entries, repeated:

CDR-L1	CDR-L2	CDR-L3	group	Kd (apparent)	replicates with signal	signal with controls
KIFYRQEEDLRHESSIA	NGMARVK	QQYYMLPLS	En_Gibbs	5.5 nM	6/6	1/18
KLRTMTLTEGYFKNSVA	QASTREN	QSYHRLPLS	En_HC	5.6 nM	6/6	0/18
KVQYQLAYSQAHTNNVA	DASVVCA	QQYQRLPIG	En_Gibbs	6.4 nM	6/6	0/18
KIMQSLNYESFMKNSVA	GQETRER	QSYHRLPLS	En_HC	48 nM	1/6	1/18
IIAENSDDITEKQNSIA	ETSQVTS	QQYHLLPLA	En_Gibbs	15 nM	6/6	0/18
TISQMTSLFSQTINNVA	EVSTREE	QQYDRLPLT	En_Gen	80 nM	5/6	0/18

Three control strains display no target. For all light chain designs, 4% of the pairings with them gave a signal, with a median of 430 nM and one signal in twenty below 38 nM, so weak values seen in few replicates may be background. For each scFv, signals with the empty controls are counted beside the result. In the paper, a design with two or fewer of six values counts as a poor binder. Values of this round are not directly comparable with the first-round values of the same sequences.